Assays:
alpha4beta2nAChRs [1] = molecular target: T1, alpha4beta2nAChRs (Homo sapiens, UniProt P17787+P43681); details: co-expressed with lynx1; cited from earlier work
alpha4beta2nAChRs [2] = molecular target: T1, alpha4beta2nAChRs; test: co-immunoprecipitation in transiently transfected HEK293 cells; format: binding; design: expressed in transfected cells; host or cells: HEK293; details: IP with nAChR antibodies, Western blot
From the text: Figures C-F depict co-immunoprecipitation studies of transiently transfected HEK293 cells with alpha4beta2 nAChRs co-transfected with lynx1 (C), lynx2 (D), lynx3 (E) and ly6H (F), a related family member.

alph4beta2 nAChRs = molecular target: T2, alph4beta2 nAChRs (Homo sapiens, UniProt P17787+P43681); test: voltage-clamp recordings of xenopus oocytes heterologously expressing nAChR and lynx cRNA; format: cell-based; details: coexpressed with a4b2 nAChRs in oocytes, 1 mM ACh
T2 construct: expressed in transfected cells; host or cells: Xenopus oocytes injected with cRNA
From the text: FIG. 2. lynx polypeptides are nAChR modulatory polypeptides, as assessed by voltage-clamp recordings in a xenopus ooctye expression system. lynx1, lynx2 and lynx3 enhance desensitization of ACh-evoked currents mediated through a4b2 nAChRs in oocytes. A. Representative recordings of voltage clamped oocytes expressing a4b2 nAChRs alone, or in combination with lynx1, lynx2, lynx3 and ly6H. The inward currents were evoked by 20 sec periods of superfusion (horizontal calibration bar) with external saline containing 1 mM ACh. […] B and C. The differences in desensitization are shown with bar graphs. As described in (2), two exponentials equations were fitted to the desensitization currents during ACh application. Using these equations, fast (B) and slow (C) time constants were calculated and the average values of these constants for ACh responses are shown in B and C. […] Both constants are unaffected in oocytes coexpressing Ly6H.
The inward currents were evoked by 20 sec periods of superfusion (horizontal calibration bar) with external saline containing 1 mM ACh. […] B and C). The differences in desensitization are shown with bar graphs. As described in (2), two exponentials equations were fitted to the desensitization currents during ACh application. Using these equations, fast (B) and slow (C) time constants were calculated and the average values of these constants for ACh responses shown. […] Both constants are unaffected in oocytes coexpressing Ly6H.

B1: lynx1: ly-6/uPAR family polypeptide, allosteric modulator of nicotinic acetylcholine receptors; mouse lynx1 (SEQ ID NO:3) (protein, listed as Mus musculus)
chain: MTHLLTVFLVALMGLPVAQALECHVCAYNGDNCFKPMRCPAMATYCMTTRTYFTPYRMKVRKSCVPSCFETVYDGYSKHASATSCCQYYLCNGAGFATPVTLALVPALLATFWSLL
desensitization (alpha4beta2nAChRs [1]): more rapid desensitization | recovery from desensitization (alpha4beta2nAChRs [1]): recover more slowly from desensitization | sensitivity of receptors to ACh (alpha4beta2nAChRs [1]): less sensitive to ACh | association with nAChRs in co-immunoprecipitation (alpha4beta2nAChRs [2]): stable associations | desensitization of ACh-evoked currents during agonist application (alph4beta2 nAChRs; 20 sec): significantly faster desensitization | fast time constant of desensitization (alph4beta2 nAChRs; two-exponential fit): significantly faster | slow time constant of desensitization (plateau phase) (alph4beta2 nAChRs; two-exponential fit): remained the same

Reference: patent US20080221013A1, “Neurobiological compositions” (priority 2006, published 2008)
